The target in the experiment is T1, P2X purinoceptor 4 (Homo sapiens, UniProt Q99571).
T1 sequence (Q99571 whole entry): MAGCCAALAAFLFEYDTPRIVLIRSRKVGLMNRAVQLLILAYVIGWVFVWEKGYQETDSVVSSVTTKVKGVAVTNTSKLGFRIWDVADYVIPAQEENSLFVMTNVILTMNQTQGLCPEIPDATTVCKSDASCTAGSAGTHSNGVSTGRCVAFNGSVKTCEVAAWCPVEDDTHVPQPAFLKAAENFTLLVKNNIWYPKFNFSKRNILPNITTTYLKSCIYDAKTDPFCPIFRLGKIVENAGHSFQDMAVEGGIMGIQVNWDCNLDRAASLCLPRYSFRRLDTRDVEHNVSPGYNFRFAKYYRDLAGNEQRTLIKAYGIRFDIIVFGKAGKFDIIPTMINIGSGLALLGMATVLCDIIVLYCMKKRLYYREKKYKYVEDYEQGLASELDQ

One may read the Ki as the dissociation constant of the complex between target and ligand, obtained from inhibition or displacement.

`Cc1nc(/N=N/c2ccc(S(=O)(=O)O)cc2S(=O)(=O)O)c(COP(=O)(O)O)c(C=O)c1O` gave an inhibitory constant (Ki) of 27.5 nM. Consider `Nc1c(S(=O)(=O)O)cc(Nc2ccc(Nc3nc(Cl)nc(Nc4ccccc4S(=O)(=O)O)n3)c(S(=O)(=O)O)c2)c2c1C(=O)c1ccccc1C2=O`, for which the inhibition constant (Ki) worked out at 39.2 nM.

The record behind these values is BindingDB's records for doi:10.1124/mol.51.1.109 (Max-Planck Institute For Experimental Medicine, 1997).
